Our source for the reporter increase values is PubChem BioAssay AID588692 (Broad Institute, 2011).

The entries are a selection whose mix differs from that of the whole data set. Calls of active or inactive are those of the source.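 Rule for the calls: active = mean luciferase reporter signal, scaled so untreated is 0 and the glycosylation-blocking control 100, at or above a set limit in every replicate; inconclusive = mean reaches the limit but not every replicate does; inactive = mean below the limit.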

This test is described as follows: D54 reporter luminescence gain compounds – D54 ERlucT cells, set 2, N-linked glycosylation inhibitor project, primary screen (AID 588692).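 Note: luciferase carries N-glycosylation sites so blocking glycosylation raises the light; 0% = median of neutral control wells and 100% = median of 100 nM tunicamycin wells.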 To be noted: D54 ERlucT glycosylation luciferase reporter, 24 h; at 12.5 µM; active compounds read high; percent of 100 nM tunicamycin response.
Consider `Nc1ccc([As](=O)(O)c2ccc(N)cc2)cc1`, for which the reporter increase was inactive: 0.169%.

With `CCN(/C(=N/P(=O)(N1CCOCC1)N1CCOCC1)N1CCOCC1)c1ccc(OC)cc1`, the reporter increase is inactive: 0.793%.

For `O=[N+]([O-])c1cccc2n[nH]nc12`, the reporter increase is inactive: 1.43%.

On to `CC(=O)N1C2C3N(C(C)=O)C1C1N(C(C)=O)C(C(N1C(C)=O)N3C(C)=O)N2C(C)=O`, for which the reporter increase is inactive: 1.8%.

For `CCc1nc2c(n1)c1c(non1O)c1c2no[n+]1[O-]`, the reporter increase was inactive: 2.15%.

Regarding `O=[N+]([O-])c1cc([N+](=O)[O-])c(CCNc2ccccc2)c([N+](=O)[O-])c1`, the reporter increase was inactive: 3.4%.

With `Cc1ccc(NP(=O)(Oc2ccccc2)Oc2ccccc2)nc1`, the reporter increase is inactive: -0.527%.

For the molecule `COc1ccc(C2=NCC(CBr)S2)cc1` (stereo not given), the reporter increase is inactive: 2.94%.

For the molecule `O=[N+]([O-])c1cccc(NC2=NCC(CBr)S2)c1` (stereo not given), the reporter increase was inactive: 3.9%.

For the molecule `COC(=O)C1(C)COP(=O)(Nc2ccccc2)OC1` (stereo not given), the reporter increase was inactive: 0.181%.

In the case of `O=C(O)CNc1ccc([As](=O)(O)O)cc1`, the reporter increase is inactive: 2.46%.

On to `CC(C)(C)C(=O)NC(Sc1ccncn1)C(Cl)(Cl)Cl` (stereo not given), for which the reporter increase is inactive: 3.37%.

On to `O=[N+]([O-])c1ncn(CCn2ncnc2[N+](=O)[O-])n1`, for which the reporter increase was inactive: 3.23%.

Take `O=C(Nc1cc([As](=O)(O)O)ccc1O)c1ccccc1`: the reporter increase was inactive: 3.02%.

`O=P1(N(CCCl)CCCl)OCCCS1` (stereo not given): the reporter increase is inactive: 1.13%.

On to `Nc1ccc([As](=O)(O)c2ccc([N+](=O)[O-])cc2)cc1`, for which the reporter increase was inactive: -0.49%.

For the molecule `C(Cc1nn[nH]n1)Cc1nn[nH]n1`, the reporter increase was inactive: 4.63%.

Regarding `O=C(OC1CN2CCC1CC2)c1cccc(Cl)c1` (stereo not given), the reporter increase was inactive: -1.19%.

Turning to `O=[N+]([O-])c1ccc(O)c(/C=N/Nc2ccc([N+](=O)[O-])cc2[N+](=O)[O-])c1`, the reporter increase is inactive: -12.4%.

As for `CC(=O)NC(SC(=S)N(C)C)C(Cl)(Cl)Cl` (stereo not given), the reporter increase is inactive: 7.65%.

`O=[N+]([O-])c1ncn(CCn2cnc([N+](=O)[O-])n2)n1`: the reporter increase is inactive: 3.02%.

As to `O=[As](O)(c1ccccc1)c1ccc(O)cc1`, the reporter increase was inactive: 1.79%.

Take `C[C@H]1OP(=O)(Oc2ccccc2)[C@H](O)[C@H](O)[C@H]1N=[N+]=[N-]` (stereo not given in full): the reporter increase is inactive: -0.461%.

Turning to `O=P(Nc1nc2ccccc2s1)(c1ccccc1)c1ccccc1`, the reporter increase was inactive: -2.53%.

As for `Nc1ccc(CCCCOc2ccccc2)cc1`, the reporter increase is inactive: 0.0225%.

Take `COc1ccc(N)c([N+](=O)[O-])c1[N+](=O)[O-]`: the reporter increase is inactive: -0.257%.

Turning to `O=P(Nc1ccccn1)(c1ccc(Br)cc1)c1ccc(Br)cc1`, the reporter increase was inactive: -0.374%.

For the molecule `CN(C)C1(CNC(=O)c2ccc(Cl)c(S(N)(=O)=O)c2)CCCCC1`, the reporter increase is inactive: 3.15%.

Turning to `c1nnnn1CCn1cnnn1`, the reporter increase was inactive: 0.257%.

As to `CC(C)C(=O)NC(Sc1ccccc1)C(Cl)(Cl)Cl` (stereo not given), the reporter increase was inactive: 0.752%.

Turning to `O=P(Nc1nccs1)(c1ccccc1)c1ccccc1`, the reporter increase was inactive: -2.54%.

Regarding `CC(=O)Nc1ccc(Oc2c([N+](=O)[O-])cc([N+](=O)[O-])cc2[N+](=O)[O-])cc1`, the reporter increase was inactive: -1.23%.

Take `CC(=O)Nc1ccc([As](=O)(O)O)c(O)c1`: the reporter increase was inactive: 2.58%.

For the molecule `COC(=O)C1(C)COP(=O)(NCc2ccccc2)OC1` (stereo not given), the reporter increase was inactive: 1.68%.

As for `N#C/C(=C\c1ccc(N(CCBr)CCBr)cc1)C(N)=O`, the reporter increase was inactive: 0.761%.

For `CC(=O)c1ccc(N2CC2c2ccncc2)cc1` (stereo not given), the reporter increase is inactive: -0.811%.

In the case of `C[C@@H]1C=CCP(=O)(Oc2ccccc2)O1` (stereo not given in full), the reporter increase was inactive: 4.95%.

With `C[C@H]1OP(=O)(Oc2ccccc2)C[C@@H]2O[C@@H]21` (stereo not given in full), the reporter increase was inactive: 1.59%.

Regarding `Cc1ccccc1CN(C)C(=O)COC(=O)C(O)(c1ccccc1)c1ccccc1`, the reporter increase is inactive: -2.46%.

For `CCc1cc(O)c([N+](=O)[O-])c(C)c1[N+](=O)[O-]`, the reporter increase is inactive: 2.7%.

Turning to `CC(C)(C)C(=O)NC(Sc1ccccc1)C(Cl)(Cl)Cl` (stereo not given), the reporter increase was inactive: -2.22%.

Take `CCOc1ccc(C2=NCC(CBr)S2)cc1` (stereo not given): the reporter increase is inactive: 0.845%.

Consider `O=P1(Nc2nc3ccc(Cl)cc3s2)COc2ccccc2O1` (stereo not given), for which the reporter increase is inactive: 0.853%.

For the molecule `CN(C)C(=O)Oc1noc2ccccc12`, the reporter increase was inactive: -2.49%.

Turning to `O=c1c2cc([N+](=O)[O-])ccc2[nH]c2c([N+](=O)[O-])cc([N+](=O)[O-])cc12`, the reporter increase is inactive: -12.5%.

On to `Cc1ccccc1OP(=O)(Nc1ccccn1)Oc1ccccc1C`, for which the reporter increase is inactive: -1.57%.

Consider `CC(NC(=O)COC(=O)C(O)(c1ccccc1)c1ccccc1)c1ccccc1` (stereo not given), for which the reporter increase is inactive: 0.609%.

Regarding `CC(=O)NC(SC(=S)N(CC(C)C)CC(C)C)C(Cl)(Cl)Cl` (stereo not given), the reporter increase is inactive: 12.2%.

Turning to `Cc1ccc(OP(=O)(Nc2ccccn2)Oc2ccc(C)cc2)cc1`, the reporter increase is inactive: -1.39%.

With `COC(=O)c1cc2c(s1)N=C(c1ccccc1)N(C)P2(=O)N1CCOCC1` (stereo not given), the reporter increase was inactive: -1.27%.

For `CCC(=O)N1C2C3N(C(=O)CC)C1C1N(C(=O)CC)C(C(N1C(=O)CC)N3C(=O)CC)N2C(=O)CC`, the reporter increase is inactive: 0.591%.

In the case of `O=C(OC1CN2CCC1CC2)c1ccccc1` (stereo not given), the reporter increase was inactive: 0.886%.

`O=P1(N(CCCl)CCCl)OCCC2CCCCN21` (stereo not given): the reporter increase was inactive: -0.157%.

Regarding `CCNC(=S)/N=C(\N)N[N+](=O)[O-]`, the reporter increase is inactive: -0.248%.

Turning to `O=C(NC1CCS(=O)(=O)C1)NP(=S)(Oc1ccccc1)Oc1ccccc1` (stereo not given), the reporter increase is inactive: -1.75%.

Take `Cc1ccc(NP(=O)(Oc2cccc(C)c2)Oc2cccc(C)c2)nc1`: the reporter increase is inactive: -4.02%.

As for `c1ccc(-c2nn[nH]n2)c(-c2nn[nH]n2)c1`, the reporter increase was inactive: -1.2%.

For `CN(C(=O)Cc1ccc(Cl)c(Cl)c1)[C@H]1CC[C@@]2(CCCO2)C[C@@H]1N1CCCC1`, the reporter increase is inactive: -1.14%.

As for `CN(C)C(=O)c1cc([N+](=O)[O-])cc2c1-c1c(cc([N+](=O)[O-])cc1[N+](=O)[O-])C2=O`, the reporter increase is inactive: -0.174%.

Consider `O=[N+]([O-])c1ccc2c(c1)nnn2O`, for which the reporter increase is inactive: -0.56%.

As for `CCOP1(=S)c2c(C)nn(CCC#N)c2N=C(c2ccc(F)cc2)N1C` (stereo not given), the reporter increase was inactive: 1.18%.

On to `CN(C(=O)Cc1ccccc1)[C@@H]1CC[C@]2(CCCO2)C[C@H]1N1CCCC1`, for which the reporter increase is inactive: -2.81%.

Take `N#CCCN(C(=O)COC(=O)C(O)(c1ccccc1)c1ccccc1)c1ccc(F)cc1`: the reporter increase is inactive: -0.168%.

Consider `NC(=O)Nc1ccc([As](=O)(O)O)cc1`, for which the reporter increase was inactive: 1.76%.

With `Nc1ccccc1[As](=O)(O)c1ccccc1`, the reporter increase is inactive: 0.552%.

`O=C(O)COc1ccc([As](=O)(O)O)cc1[N+](=O)[O-]`: the reporter increase was inactive: 3.71%.

Turning to `CS(=O)(=O)c1cc([N+](=O)[O-])c2no[n+]([O-])c2c1`, the reporter increase was inactive: -1.19%.

For `O=P(Nc1nccs1)(c1ccccc1)c1nc2ccccc2s1` (stereo not given), the reporter increase is inactive: -7.03%.

For the molecule `O=P(Nc1nccs1)(Oc1ccccc1)Oc1ccccc1`, the reporter increase is inactive: -2.38%.

For `CCOP1(=S)c2c(C)nn(CCC#N)c2N=C(c2ccccc2F)N1C` (stereo not given), the reporter increase is inactive: 1.7%.

For `CCOP(=O)(Nc1cccc2ccccc12)OCC`, the reporter increase was inactive: 0.669%.

Take `COc1cc(C2NCCC3(OCCO3)C2(C)C)cc(OC)c1OC` (stereo not given): the reporter increase was inactive: -1.26%.

Consider `CCCOP(=S)(Nc1nc(N)cc(=O)[nH]1)OCCC`, for which the reporter increase is inactive: -0.387%.

Regarding `Cc1ccc(NCCc2c([N+](=O)[O-])cc([N+](=O)[O-])cc2[N+](=O)[O-])cc1`, the reporter increase is inactive: 0.12%.

With `Nc1cccc2c([As](=O)(O)O)cccc12`, the reporter increase is inactive: 3.32%.

For `O=[As](O)(c1cccc(O)c1)c1cccc(O)c1`, the reporter increase is inactive: 0.512%.

`Cc1cccc(OCC(=O)OC2CN3CCC2CC3)c1` (stereo not given): the reporter increase was inactive: -0.007%.

For `CS(=O)(=O)c1ccc(Cl)c(NC(=O)COC(=O)C(O)(c2ccccc2)c2ccccc2)c1`, the reporter increase is inactive: -0.432%.

Take `COc1cc(C(=O)NCC2(N3CCOCC3)CCCCC2)cc(Cl)c1OC(C)C`: the reporter increase is inactive: -7.85%.

Regarding `O=[As](O)(O)c1cccnc1`, the reporter increase was inactive: 3.38%.

On to `O=C(OC1CN2CCC1CC2)c1ccc(Cl)cc1` (stereo not given), for which the reporter increase was inactive: -3.27%.

Regarding `CC1(CBr)Cn2c(nc3ccccc3c2=O)S1` (stereo not given), the reporter increase was inactive: 2.39%.

For `CC(C)/C=N\N=C(\N)N[N+](=O)[O-]`, the reporter increase was inactive: 0.972%.

`CN(C(=O)Cc1ccc(Cl)c(Cl)c1)[C@@H]1CCCC[C@H]1N1CCCC1`: the reporter increase is inactive: -4.19%.

As for `COc1ccccc1CNC(=O)COC(=O)C(O)(c1ccccc1)c1ccccc1`, the reporter increase was inactive: -0.474%.

Take `CC(C)(C)C(=O)NC(Sc1ncccn1)C(Cl)(Cl)Cl` (stereo not given): the reporter increase is inactive: -1.15%.

With `O=P1(N(CCCl)CCCl)NCCC(C(F)(F)F)O1` (stereo not given), the reporter increase is inactive: 2.21%.

Turning to `Clc1n[nH]nc1-c1nn[nH][15n]1`, the reporter increase was inactive: -0.152%.

As to `CN(CCCl)Cc1cc(Cl)c(NC2=NCCN2)c(Cl)c1`, the reporter increase is inactive: -2.71%.

In the case of `CCOP(=O)(Nc1ccc(C)cn1)OCC`, the reporter increase is inactive: 0.668%.

Consider `CCOP(=O)(NC(=NC(C)c1ccccc1)NC(C)c1ccccc1)OCC` (stereo not given), for which the reporter increase was inactive: 1.64%.

On to `O=P1(Nc2ccccn2)COc2ccccc2OC1`, for which the reporter increase was inactive: 0.796%.

Regarding `CCC1=CC2Cc3nc4ccc(Cl)cc4c(N)c3C(C1)C2` (stereo not given), the reporter increase was inactive: -1.26%.

With `O=P1(Nc2ccc(Br)cn2)COc2ccccc2OC1`, the reporter increase is inactive: -1.07%.

In the case of `NS(=O)(=O)c1cccc(NC(=O)COC(=O)C(O)(c2ccccc2)c2ccccc2)c1`, the reporter increase was inactive: -2.08%.

`Cc1ccc(OCC(=O)OC2CN3CCC2CC3)cc1` (stereo not given): the reporter increase was inactive: 1.36%.

As for `O=[As](O)(c1cccs1)c1cccs1`, the reporter increase was inactive: 3.03%.

For the molecule `Nc1cccc([As](=O)(O)c2ccccc2)c1`, the reporter increase is inactive: -0.47%.

In the case of `O=P1(Nc2ncccn2)COc2ccccc2OC1`, the reporter increase is inactive: 2.78%.

On to `Cc1ccc(S(=O)(=O)N(CCCN)CCCc2c(C)nc(N)[nH]c2=O)cc1`, for which the reporter increase is inactive: -7.5%.
